Laboratory results published in PubChem BioAssay AID651814 (National Center for Advancing Translational Sciences (NCATS), 2012).
The entries are a selection whose mix differs from that of the whole data set. Records with an inconclusive call do not appear. Activity calls are given as the source filed them. Calls follow the shape of the dose curve; as a rule, active = well fitted inhibition curve with a large enough effect; inconclusive = small, poorly fitted or top-dose-only effect; inactive = flat fitted curve, though single readings scatter.

The chains behind the UniProt entries cited, without tags or fusion partners. Where a name states a change or a piece, a line headed by the entry shows the natural chain unless it says otherwise.
UniProt Q8IUX4: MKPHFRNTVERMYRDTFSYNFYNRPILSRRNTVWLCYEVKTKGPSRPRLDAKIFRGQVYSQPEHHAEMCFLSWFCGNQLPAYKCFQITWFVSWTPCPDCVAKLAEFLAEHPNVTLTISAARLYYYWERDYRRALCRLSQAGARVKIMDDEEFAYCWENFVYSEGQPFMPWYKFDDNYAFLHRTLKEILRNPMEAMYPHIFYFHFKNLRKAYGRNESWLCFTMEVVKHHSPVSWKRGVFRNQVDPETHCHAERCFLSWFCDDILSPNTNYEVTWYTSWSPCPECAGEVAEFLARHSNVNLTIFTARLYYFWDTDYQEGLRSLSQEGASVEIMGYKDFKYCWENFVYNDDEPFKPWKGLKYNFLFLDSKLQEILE

biological target: DNA dC->dU-editing enzyme APOBEC-3F (Homo sapiens) (UniProt Q8IUX4); assay: qHTS for inhibitors of Vif-A3F interactions: Cherry picks; conditions: HeLa A3F-eYFP + Vif (tagged APOBEC3F with the HIV-1 protein that degrades it), eYFP fluorescence, 24 h; also: nearly all actives have a fitted effect of over 70% in size
From the text: The recent discovery and characterization of host restriction factors, which provide a potent defense to invading retroviruses, has provided new targets for antiviral drug development. APOBEC3G (A3G) and APOBEC3F (A3F) are potent cytidine deaminases that block HIV-1 replication; HIV-1 expresses the Vif protein, which counteracts A3G and A3F by binding to them and inducing their proteasomal degradation. The Vif-A3G and Vif-A3F interactions provide two potential targets for development of small molecules which can interfere with the ability of Vif to degrade A3G or A3F. […] To identify inhibitors that can interfere with Vif mediated degradation of A3G and A3F, we have developed Hela cell lines that stably express A3G or A3F tagged with eYFP at the C-terminal end (A3G-eYFP or A3F-eYFP, respectively) and Vif. In the absence of an inhibitor, Vif induces degradation of A3G-eYFP and A3F-eYFP, and the cells are not fluorescent. In the presence of an inhibitor, it is expected that Vif will be unable to degrade A3G-eYFP and/or A3F-eYFP, resulting in an increase in yellow fluorescence. […]
A3F-Vif cells were harvested from T225 flask and resuspended in phenol free OPTI-MEM medium with 5% FBS. […] After that, the plates were measured on Acumen Explorer (TTP Lab Tech). The fluorescence was detected by 488 nm/Ex and […].
Potency is read from the fitted curve at half-maximal effect.

SMILES	Potency
CC[n+]1c(/C=C/N(C)c2ccccc2)oc2ccccc21	active: 7.31 µM
